Type in all cases: cell-based, human
For one assay, the system named is BT474 cells. Put plainly: Apoptosis by annexin V staining and flow cytometry, BT474. To be noted: lapatinib 0.1 μM, pAb 100 μg/ml, trastuzumab 10 μg/ml, 72 hr, FIG. 12A top. As for the experimental part: After harvesting the cells with trypsin-EDTA, 5000 cells in 50 μl were sampled on 96-well microplates. The cells were stained directly in the microplate with Annexin V-PE and Nexin 7-AAD in 1× Nexin Buffer in a 200 μl final reaction volume. After incubating for 20 minutes at room temperature, the reaction samples were ready to be acquired in the Guava PCA-96-system (Guava Technology, Inc., Hayward, Calif. USA).
7-AAD binds to cellular nuclear material after cellular membranes break down in late apoptosis. Annexin-V staining indicates early apoptotic changes that precede the loss of cellular membrane integrity. Use of Annexin-V in conjunction with 7-amino-actinomycin D (7-AAD) thus can identify both early and late apoptotic cells.
Flow cytometry results were graphed as dot plot results (not shown) with annexin V on the X-axis and 7-AAD on the Y-axis. Low annexin V and low 7-AAD represented viable cells; low annexin V and high 7-AAD indicated nuclear debris; cells with high annexin V staining indicated apoptotic cells. The graphs provided in FIGS. 12A, 12C, 15A, and 16 show the percentage of apoptotic cells (high annexin V) compared to total cells.

The subject of another assay is survivin. Put plainly: Western blot of steady state survivin protein, BT474 cells. As to conditions: lapatinib 0.1 μM, pAb 100 μg/ml, trastuzumab 10 μg/ml, 72 hr, FIG. 12A bottom. The procedure: (§1) To assess the levels of various proteins in cells, whole cell extracts were prepared by scraping cells off petri dishes, washing the cell pellet twice in phosphate buffered saline (PBS), and then resuspending the pellet in two-packed-cell volumes of RIPA buffer(150 mM NaCl, 50 mM Tris-HCl, pH 7.5, 0.25% (w/v) deoxycholate, 1% NP-40, 5 mM sodium orthovanadate, 2 mM sodium fluoride, and a protease inhibitor cocktail). Protein concentrations were determined using a modification of the Bradford method (Bio-Rad Laboratory). […] The immunoprecipitates were separated by 4-15% gradient SDS-polyacrylamide […] gel electrophoresis (SDS-PAGE), and ErbB receptors were detected by Western Blot with anti-ErbB receptor antibodies.
(§2) Steady state levels of Survivin, total ErbB2, phosphorylated ErbB2 (pErbB2 or pTyr), total Erk1/2 , activated Erk1/2 (p-Erk), total pErbB3, activated pErbB3 (pErbB3), total AKT protein and activated Akt (p-Akt) protein were assessed by Western blot. Levels of pErbB2 were assessed using an antibody that bound to multiple tyrosine-phosphorylated forms of ErbB2 (i.e., the antibody was not phosphorylation-site specific). […]
(§3) For Western blot, equal amounts of proteins were resolved by either 7.5% or 4-15% gradient SDS polyacrylamide gel electrophoresis under reducing conditions. […] Efficiency and equal loading of proteins was evaluated by Ponceau S staining. […]

For a further assay, the system named is phospho-Erk1/2. Put plainly: Western blot of activated phospho-Erk1/2, BT474 cells. To be noted: 72 hr, FIG. 13. The procedure:
as §1, §2, §3

The next assay has as its system phospho-Akt. Put plainly: Western blot of activated phospho-Akt, BT474 cells. As to conditions: 72 hr, FIG. 13. As for the experimental part: as §1, §2, §3

For “trastuzumab: humanized monoclonal antibody to HER-2/neu”, the apoptosis result with BT474 cells is reported as “slight increase in apoptosis”. In the assay on survivin, the survivin protein expression result is listed as “little effect on survivin”. Besides, the “steady state levels of pErk1/2” value with phospho-Erk1/2 is given as “inhibited by trastuzumab, although less than that observed with pAb”. Moreover, the “steady state levels of pAkt” value with phospho-Akt is reported as “inhibited by trastuzumab, although less than that observed with pAb”.

These data come from patent publication US20100028414A1, “COMBINATION OF TYROSINE KINASE INHIBITOR AND HER-2/NEU FOR CANCER THERAPY” (priority 2004, published 2010).
